Results on one compound are retold here after PubChem BioAssay (NCI).

The structures appear in SMILES notation.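 Cells were grown in 96-well plates and exposed to each compound for 48 hours at five concentrations; endpoints were interpolated linearly between bracketing concentrations, or set to the highest concentration if not reached. Abbreviation: GI50, concentration required for 50% inhibition of growth. TGI marks complete inhibition of growth.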

This assay deals with MDA-MB-468 breast. In words: DTP human tumour cell line panel, 48 h.

Usually GI50 stands for the concentration that inhibits growth by half. A word on the TGI: it is the concentration at which net growth stops. Read a high TGI as lower sensitivity of the cells. Turning to `N#CC1(Nc2ccc(Cl)cc2)CCN(Cc2ccccc2)CC1`, the GI50 was 27.5 µM and the TGI was greater than 100 µM.
